Test results: patent publication US6350737B1, “Platinum complex, its preparation and therapeutic application” (Pliva-Lachema, A.S., priority 1998, dated 2002)

Description: Mice female DBA/1 of body mass 22.9-25.8 g were used in this experiment. Tumors were developed by s.c. inoculation of 0.2 ml of a tumor homogenate diluted in 1:1 volume ratio with an isotonic glucose solution. Tested compounds were applied in a form of an isotonic water solution prepared immediately before application by dissolution of corresponding lyophilised product in water for injections and further by dilution with isotonic sodium chloride solution ad hoc according to the need, in volumes of 0.1-0.4 ml per 20 g of body mass of an animal, as apparent from the following table.

With “cis-(1-adamantylamine) amminedichloroplatinum (II) [LA-9]” the “loss of body weight” value (administration of LA-9 to tumor-bearing mice) was “less than 10%” and the “maximum tolerable dose (MDT)” value (estimated, mice) was “around 25 mg/kg”.
